Screening data deposited in PubChem BioAssay by National Center for Advancing Translational Sciences (NCATS).
This is a sample that favours compounds with a hit; in the whole collection about 3.7% have one here.
ClpP mod: qHTS Assay for Activators of ClpP; ATP-dependent Clp protease proteolytic subunit (Bacillus subtilis (strain 168)), P80244; purified B. subtilis ClpP, FRET peptide cleavage, 20 min; 340,000 compounds, 1.9% hits; Potency, µM (doses to about 57.5 µM), for inactives: at the highest dose activity change, negative = active; active means well fitted falling curve with a large enough effect; inconclusive means small, poorly fitted or top-dose-only effect; inactive means no such curve, though single readings can be large or run the other way; further: potency means the concentration at half of the fitted maximal effect; the source files actives as falling curves though it sought activators and does not explain the sign; nearly all actives have a fitted effect of over 65% in size
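FRET quenching reversal measured ClpP activation: 10 microg/mL B. subtilis ClpP at pH 8 with the FRET-FV decapeptide, read at 430 nm after 320 nm excitation. The 20-min minus 0-min signal was scaled between DMSO/no-enzyme wells and ADEP (5.8 microM final).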
Nrf2 inh: Nrf2 pathway inhibition; A549 ARE-Fluc reporter, luciferase luminescence, 18-24 h; Potency, µM (top dose mostly 46 µM), inactives show at the highest dose activity change, negative = inhibition, most hits filed as inhibitors; 360,000 compounds, 2.1% hits; AID 504444; further: potency means the concentration at half of the fitted maximal effect; on the % scale 0 is the no-effect control and ±100 the full control effect; nearly all actives have a fitted effect of over 60% in size
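Two sequential reads on A549 ARE_Fluc cells exposed to compound for 18-24 h: a CellTiter-Fluor fluorescence read for viability, then a luciferase luminescence read for Nrf2/ARE activity.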
TCR act: T cell receptor activation | Potency, µM (series often up to 9.22 µM), for inactives: top-dose activation of IL-2 secretion, usual class: activators | primary human leukocytes, anti-CD3, IL-2 HTRF, 48 h | 330,000 tested, under 10 active; further: % of control where 0% means no effect
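Primary human leukocytes incubated 48 hr with anti-CD3 beads plus compound, without co-stimulation. Secreted IL-2 measured by HTRF (europium cryptate/d2 anti-IL-2 pair, 320 nm excitation, 665 nm emission).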
A549 tox: kills or reduces viability of A549 cells in Nrf2 counter-screen; AID 504648; A549 ARE-Fluc cells, CellTiter-Fluor viability, 18-24 h; Potency, µM (titrated, usually from 46 µM), inactives show at the highest dose activity change, negative = cytotoxicity, hits mostly inhibitors; 390,000 compounds, 0.16% hits; further: potency means the concentration at half of the fitted maximal effect; on the % scale 0 is the no-effect control and ±100 the full control effect
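A549 ARE-Fluc cells in 5% FBS OPTI-MEM, 5000 cells/well, rested 2 h then exposed to compounds in concentration-response for 18-24 h at 37 °C. Viability by CellTiter-Fluor fluorescence (Ex 405/Em 525) after 30 min; luciferase luminescence (BugLite, 15 min, RT) read afterwards.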
Nrf2 ARE act: activators of Nrf2 (ARE) signaling; 410,000 compounds, 0.31% hits; Potency, µM (doses to about 46.1 µM), without a hit: top-dose activation, most hits filed as activators; AREc32 ARE-luciferase reporter (MCF7-derived line), luminescence, 24 h; further: potency means the concentration at half of the fitted maximal effect; % of control where 0% means no effect; nearly all actives have a fitted effect of over 65% in size
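ARE activation measured as luciferase luminescence (Steady-Glo, 30 min RT) in AREc32_Fluc cells after 24 hr compound exposure at 37 deg C, 5% CO2; cells seeded overnight at 1000/well in OPTI-MEM, 5% FBS.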
miR-21 reporter: miR-21 reporter, rising signal | AID 2288 | HeLa miR-21 FLuc reporter, luciferase, 48 h | 340,000 tested, under 10 active | Potency, µM (doses to about 38.3 µM), for inactives: at the top dose reporter change, positive = more light; active = well fitted rising curve with a large enough effect; inconclusive = small, poorly fitted or top-dose-only effect; inactive = no such curve, though single readings can be large or run the other way;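 note: % of control where 0% means no effect; miR-21 action dims this reporter so a rising signal means less miR-21 action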
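Using DMEM plus 10% FBS, HeLa miR-21-FLuc cells are incubated with test compounds (final up to about 40uM) for 48 hours; firefly luciferase signal is then imaged following reagent-mediated lysis.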
The depositor's hits bear a star; ? = inconclusive; / = no result given; [ ] = remark or other dose. Unless noted, the call rests on the fitted dose curve; in most records, active means well fitted curve in the direction sought with a large enough effect; inconclusive means small, poorly fitted or top-dose-only effect, or another doubt; inactive means no such curve, though single readings can be large; an effect the other way counts as inactive or inconclusive.

SMILES	ClpP mod	Nrf2 inh	TCR act	A549 tox	Nrf2 ARE act	miR-21 reporter
COc1cccc2c(=O)c(C(=O)O)c[nH]c12	22µM*	9%	0%	0%	0%	8%
CC(C)CC(=O)Nc1ccc(C(=O)COC(=O)Cc2n[nH]c(=O)c3ccccc23)cc1	-8%	0%	1%	4%	0%	/
CC(C)(C)OC(=O)Cc1nnc(-c2cc3ccccc3[nH]2)s1	/	?	/	-1%	/	/
COc1ccc(C2Oc3ccccc3C(=O)N2Cc2ccccc2)cc1COc1ccc(NC(C)=O)cc1 (stereo unspecified)	/	?	/	-10%	/	/
COC(=O)c1ccc(/C=C(\C#N)c2nc3ccccc3s2)cc1	-1%	18%	3%	1%	0%	-8%
N#C/C(=C\c1ccccn1)c1nc2ccccc2s1	/	?	-8%	-1%	18µM*	-20%
Cc1ccc(SCCC(=O)N/N=C/c2ccncc2)cc1	/	15µM*	-2%	6%	0%	-2%
Cc1ccc(/C=N/NC(=O)CCSc2ccccc2)cc1	1%	-4%	-5%	-4%	4%	-18%
CC1CCCCc2nc3c(c(=O)n21)CCCC3 (stereo unspecified)	1%	/	/	/	0%	/
O=C(NCC1CCN(c2ccc(S(=O)(=O)N3CCOCC3)cc2)CC1)Nc1ccccc1F	/	-29%	-6%	-5%	0%	10%
O=S(=O)(c1ccc(NC(=S)N2CCN(c3ccc(O)cc3)CC2)cc1)N1CCOCC1	/	12µM*	6%	-18%	1%	26%
COc1ccccc1C(=O)NCCC(=O)Nc1ccc(S(=O)(=O)N2CC(C)CC(C)C2)cc1 (stereo unspecified)	0%	13µM*	-1%	-6%	-1%	/
COc1ccccc1C(=O)NCC1CCN(c2ccc(S(=O)(=O)N3CCOCC3)cc2)CC1	-1%	23µM*	-16%	?	2%	21%
COc1ccc(S(=O)(=O)N2CCOCC2)cc1C(=O)NCC(c1ccccc1)c1ccccc1	2%	2%	-2%	-7%	0%	/
O=C(NCC1CCN(c2ccc(S(=O)(=O)N3CCOCC3)cc2)CC1)Nc1ccccc1	/	15µM*	-2%	-16%	4%	2%
O=S(=O)(c1ccc(NC(=S)N2CCOCC2)cc1)N1CCCCC1	0%	/	/	/	0%	/
COc1ccc(-c2c3c(=O)n(C)c(=O)n(C)c3cn2-c2cccc(N)c2)cc1	?	-25%	/	1%	1%	-33%
NC1(c2ccc(-c3nc4ccn5c(=O)[nH]nc5c4cc3-c3ccccc3)cc2)CCC1	5%	/	/	/	/	/
O=C1/C(=C/C=C/c2ccco2)SC(=S)N1c1ccc(O)cc1	-3%	6%	-9%	-8%	10µM*	-11%
O=C1/C(=C\c2ccco2)SC(=S)N1c1ccc(O)cc1	-1%	13%	0%[46.1 µM]	-13%	15%	-8%
CCOCCC(=O)Nc1ccc2c(c1)c(=O)n(C)n2C/C=C/c1ccccc1	4%	/	/	/	0%	/
COCCOc1ccc(C(F)(F)F)cc1NC(=O)c1ccc(C)cc1	?	-1%	-1%[46.1 µM]	0%	11µM*	-4%
COc1cc(C2C(C(=O)Nc3ccccc3C)=C(C)Nc3ncnn32)ccc1OCC(N)=O (stereo unspecified)	-9%	/	/	5%	0%	1%
CN(C(=O)COc1ccccc1C(=O)NCCOc1ccccc1)c1ccccc1	-3%	15µM*	-10%	?	-3%	?
O=C(OCC(=O)N1CCOCC1)c1cccc(S(=O)(=O)Nc2ccc(F)cc2)c1	1%	-24%	-8%	1%	1%	/
COc1cc2c(cc1OC)C(c1ccccc1[N+](=O)[O-])=NCC2	0%	/	/	/	1%	/
C=CS(=O)(=O)c1ccc(Oc2ccc(S(=O)(=O)C=C)cc2)cc1	0%	18µM*	-4%[46.1 µM]	?	-2%	?
COc1ccc(Br)cc1CNC(=O)c1nn(-c2ccc(C)cc2)c(=O)c2c1c1ccccc1n2C	-5%	-16%	/	-9%	0%	4%

Molecules shown so far that have two or more sulfur atoms, in the order listed:
SMILES	ClpP mod	Nrf2 inh	TCR act	A549 tox	Nrf2 ARE act	miR-21 reporter
O=S(=O)(c1ccc(NC(=S)N2CCN(c3ccc(O)cc3)CC2)cc1)N1CCOCC1	/	12µM*	6%	-18%	1%	26%
O=S(=O)(c1ccc(NC(=S)N2CCOCC2)cc1)N1CCCCC1	0%	/	/	/	0%	/
O=C1/C(=C/C=C/c2ccco2)SC(=S)N1c1ccc(O)cc1	-3%	6%	-9%	-8%	10µM*	-11%
O=C1/C(=C\c2ccco2)SC(=S)N1c1ccc(O)cc1	-1%	13%	0%[46.1 µM]	-13%	15%	-8%
C=CS(=O)(=O)c1ccc(Oc2ccc(S(=O)(=O)C=C)cc2)cc1	0%	18µM*	-4%[46.1 µM]	?	-2%	?
